Results on one molecule are retold here after USRE28744E, “Crystalline p-hydroxyampicillin and salts thereof” (priority 1968, dated 1976).

Where two headings read alike, the source gives them in different places.

Type in all cases: cell-based
The test system of assay [1] is Proteus morganii G. Put plainly: serial dilution in nutrient agar, synergy M.I.C., Proteus morganii G.
Assay [2] has as its system Paracolon 232. The experiment in a line: serial dilution in nutrient agar, synergy M.I.C., Paracolon 232.
Assay [3] has as its system E. coli 37. Put plainly: serial dilution in nutrient agar, synergy M.I.C., E. coli 37.
For assay [4], the system named is Proteus vulgaris K. Put plainly: serial dilution in nutrient agar, synergy M.I.C., Proteus vulgaris K.
Setting [5] is: in the presence of 100 μg./ml. Cloxacillin.
Setting [6] is: in the presence of 100 μg./ml. Methicillin.
Setting [7] is: in the presence of 100 μg./ml. Nafcillin.
Where [8] appears, read: in the presence of 100 μg./ml. Dicloxacillin.

In the case of `CC1(C)S[C@@H]2[C@H](NC(=O)[C@H](N)c3ccc(O)cc3)C(=O)N2[C@H]1C(=O)O` [Example 3, 6-[(-)α-amino-p-hydroxyphenylacetamido]Penicillanic Acid], the “Minimum inhibitory concentration, Proteus morganii G” value in assay [1] (setting [5]) came out at 12.5 µg/mL; in assay [1] (setting [6]), 1.25 µg/mL; in assay [1] (setting [7]), 125 µg/mL. The “Minimum inhibitory concentration, Paracolon 232” value in assay [2] came to 1.25 µg/mL; in assay [2] (None (alone), 18 hours at 37°C), 125 µg/mL; in assay [2] (setting [5]) it was 1.25 µg/mL; in assay [2] (setting [8]), 1.25 µg/mL; in assay [2] (setting [7]), 12.5 µg/mL. The “Minimum inhibitory concentration, E. coli 37” value is 1.25 µg/mL in assay [3]; 125 µg/mL in assay [3] (None (alone), 18 hours at 37°C); 1.25 µg/mL in assay [3] (setting [5]); 1.25 µg/mL in assay [3] (setting [8]); 1.25 µg/mL in assay [3] (setting [6]). Also, the figures for the “Minimum inhibitory concentration, Proteus vulgaris K” value in assay [4] (setting [5]) and in assay [4] (setting [7]) were 12.5 µg/mL and 125 µg/mL, respectively.
